Biological target: T1, human BACE1 (sproBACE1) (Homo sapiens, UniProt P56817)
T1 construct: sBACE1, corresponding to amino acids 1-454; made in house; host or cells: Sf9 insect cells (baculovirus), secreted into the medium
Experiment: BACE-1 Peptide Hydrolysis Assay (HTRF)
Type: biochemical
Conditions: not given
From the text: A HindIII/PmeI fragment from pCDNA4-sBACE1myc/His was blunt ended using Klenow and subcloned into the Stu I site of PFASTBACI(A) (Invitrogen). A sBACE1mycHis recombinant bacmid was generated by transposition in DH10Bac cells (GIBCO/BRL). Subsequently, the sBACE1mycHis bacmid construct was transfected into sf9 cells using CellFectin (Invitrogen, San Diego, Calif.) in order to generate recombinant baculovirus. […] Five milliliters of high titer plaque purified sBACEmyc/His virus was used to infect 1 L of logarithmically growing sf9 cells for 72 hours. Intact cells were pelleted by centrifugation at 3000×g for 15 minutes. The supernatant, containing secreted sBACE1, was collected and diluted 50% v/v with 100 mM HEPES, pH 8.0. The diluted medium was loaded onto a Q-sepharose column. The Q-sepharose column was washed with Buffer A (20 mM HEPES, pH 8.0, 50 mM NaCl).
Proteins, were eluted from the Q-sepharose column with Buffer B (20 mM HEPES, pH 8.0, 500 mM NaCl). The protein peaks from the Q-sepharose column were pooled and loaded onto a Ni-NTA agarose column. The Ni-NTA column was then washed with Buffer C (20 mM HEPES, pH 8.0, 500 mM NaCl). Bound proteins were then eluted with Buffer D (Buffer C+250 mM imidazole).
Reactions were initiated by addition of substrate in a 5 μl aliquot resulting in a total volume of 25 μl. After 3 hr at 30° C. reactions were terminated by addition of an equal volume of 2× stop buffer containing 50 mM Tris-HCl pH 8.0, 0.5 M KF, 0.001% Brij-35, 20 μg/ml SA-XL665 (cross-linked allophycocyanin protein coupled to streptavidin; CIS-Bio International, France) (0.5 μg/well). Plates were shaken briefly and spun at 1200×g for 10 seconds to pellet all liquid to the bottom of the plate before the incubation.
Y=Bottom+(Top-Bottom)/(1+10^((LogEC50−X)*Hill Slope)); X is the logarithm of concentration of I, Y is the percent change in ratio and Y starts at bottom and goes to top with a sigmoid shape.

The chains behind the UniProt entries cited, without tags or fusion partners. Residues count along the entry.
UniProt P56817, 22-454: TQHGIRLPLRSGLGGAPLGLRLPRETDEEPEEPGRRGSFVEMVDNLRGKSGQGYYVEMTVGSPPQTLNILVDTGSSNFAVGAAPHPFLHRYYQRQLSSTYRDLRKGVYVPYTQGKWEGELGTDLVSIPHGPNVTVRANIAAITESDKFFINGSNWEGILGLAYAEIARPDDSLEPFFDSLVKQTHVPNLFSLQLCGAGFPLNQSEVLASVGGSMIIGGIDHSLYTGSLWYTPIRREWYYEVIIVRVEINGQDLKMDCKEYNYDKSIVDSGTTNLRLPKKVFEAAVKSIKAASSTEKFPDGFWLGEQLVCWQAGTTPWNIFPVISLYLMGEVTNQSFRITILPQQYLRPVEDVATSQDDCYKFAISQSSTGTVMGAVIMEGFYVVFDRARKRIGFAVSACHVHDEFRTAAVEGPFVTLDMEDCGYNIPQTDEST

SMILES	Ki
CN1C(=N)NC(c2ccccc2)(c2cccc(-c3ccccn3)c2)C1=O (racemic) [2-IMINO-3-METHYL-5-PHENYL-5-[3-(2-PYRIDINYL)PHENYL]-4-IMIDAZOLIDINONE (RACEMIC)]	< 5 µM
CN1C(=N)NC(c2cccc(-c3cccc(Cl)c3)c2)(C2(C)CC2)C1=O (stereo not shown)	< 5 µM
CN1C(=N)N[C@@](c2cccc(-c3cncc(Cl)c3)c2)(C2CC2)C1=O	< 5 µM

Same assay, conditions: read-out: BACE-1 Ki

SMILES	Ki
CN1C(=N)NC(CC2CC2)(c2cccc(-c3cccc(Cl)c3)c2)C1=O (stereo not shown)	< 5 µM
CN1C(=N)NC(c2cccc(-c3cccc(Cl)c3)c2)(C2CCCCC2)C1=O (stereo not shown)	< 5 µM
CN1C(=N)NC(c2cccc(-c3cccc(Cl)c3)c2)(c2ncccn2)C1=O (stereo not shown)	< 5 µM
CN1C(=N)NC(c2cccc(-c3cccc(Cl)c3)c2)(c2nccs2)C1=O (stereo not shown)	< 5 µM
